For one compound, inhibition results are on record in patent US6028110A, “Succinyl hydroxamic acid, N-formyl-N-hydroxy amino carboxylic acid and succinic acid amide derivatives as metalloprotease inhibitors” (British Biotech Pharmaceuticals Ltd., priority 1994, dated 2000).

The chains behind the UniProt entries cited, without tags or fusion partners. Residues count along the entry.
UniProt P08254, 100-477: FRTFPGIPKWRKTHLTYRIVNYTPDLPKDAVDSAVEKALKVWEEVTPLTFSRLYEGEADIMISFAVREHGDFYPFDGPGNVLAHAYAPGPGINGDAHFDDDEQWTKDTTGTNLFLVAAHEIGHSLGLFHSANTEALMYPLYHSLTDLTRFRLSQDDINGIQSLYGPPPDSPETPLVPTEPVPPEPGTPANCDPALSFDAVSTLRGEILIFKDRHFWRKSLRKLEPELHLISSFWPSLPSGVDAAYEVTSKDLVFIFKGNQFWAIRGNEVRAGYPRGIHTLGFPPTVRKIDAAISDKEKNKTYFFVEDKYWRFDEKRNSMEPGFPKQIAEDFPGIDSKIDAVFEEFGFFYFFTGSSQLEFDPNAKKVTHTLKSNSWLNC

Where a name gives a salt, the structure may show the parent alone.

For this assay, the target named is stromelysin (Homo sapiens, UniProt P08254). The experiment in a line: Inhibition of stromelysin (14C acetylate casein). It counts as biochemical. To be noted: 37°, 16 hours, pH 7.5.

Usually inhibition stands for the relative decrease from the control value, in per cent. The compound `CCCCCCCCCCCCCCCC[C@H](CC(=O)O)C(=O)N[C@@H](Cc1ccccc1)C(=O)NC` [Example 1, 3R-(1S-Methylcarbamoyl-2-phenyl-ethylcarbamoyl)nonadecanoic acid (dicyclohexylamine salt)] returned an inhibition at 100 µM of 10%.
